A short description of this assay: qHTS Assay for Modulators of Hemoglobin Beta Chain Splicing. Also: 0% is about no effect. The note with it: HBB splicing reporter cell assay, EGFP reporter with mutant IVS2-654 intron, normalised to 500 nM splice-correcting PNA. From the text: NIH Chemical Genomics Center [NCGC]
NIH Molecular Libraries Screening Centers Network [MLSCN]
PI Name: Dr. Ryszard Kole
Modulation of Alternative Splicing as Therapy
Abnormal splicing is associated with a number of diseases, including cancer and genetic diseases such as cystic fibrosis, muscular dystrophy and beta-thalassemia. Alteration of disease associated splicing patterns provides a promising target for treatment. […] Mutations in the second intron of the beta-globin gene at positions are clinically relevant and cause mis-splicing which results in an out of frame gene product.
EGFP-654 and 705 HeLa Cells as screen system.
HeLa cell lines were stably transfected with a construct in which the EGFP (enhanced green fluorescent protein) cDNA was interrupted by the second intron of the beta-globin gene (IVS2-654). The ISV2 intron contains mutations which cause mis-splicing of EGFP and premature termination of EGFP which results in a nonfluorescent protein product. […] Expression of the transgene was driven by the CMV promoter. We concluded that a low molecular weight compound, which restored correct splicing of intron 2 would also generate functional EGFP protein, resulting in a fluorescent signal. Thus, the HeLa cells that express the EGFP-654 construct can be used for high throughput screening of a chemical library.
NCGC Assay Protocol Summary:
High Throughput Screening. Freshly thawed HeLa EGFP-654 cells were seeded in 5 ul of optimem media (Invitrogen) containing 2 % fetal calf serum (Hyclone) and 1x penicillin/streptomycin (Invitrogen) at a concentration of 500 cells per well in 1536-well plates. Cells were incubated overnight at 37C in 5% CO2. The next day, cells were treated with DMSO, 500 nM antisense ISV2 654 PNA control oligo, or library compound and allowed to grow at 37C in 5% CO2 for 2 days. The PNA oligo blocked the mutation site in the intron and allowed proper (wild type) splicing to occur, resulting in full length EGFP expression and also allowed for optimization of the assay parameters. Plates were read in the Acumen Explorer (TTP Labtech) using 488 nm laser excitation and 500-520 nm emission PMT filter in a 1 x […] capture mode. Fluorescnet Fluorescent objects ranging in size from […] were measured and the total peak GFP intensity for each well was used for data analysis.
Keywords: Thalassemia, beta-thalassemia, beta-globin, EGFP, ISV2 654, ISV2 705, SSO, PNA, antisense, splicing, MLSMR, MLSCN, NIH Roadmap, qHTS, NCGC
(In general: Quantitative high-throughput screening tests each substance at several concentrations.)

The mark [1] stands for this setting: at 46.1 µM (top of the series) unless noted.

Only a part is listed here, and it is no random draw. Calls of active or inactive are those of the source. Calls follow the shape of the dose curve; as a rule, active = well fitted activation curve with a large enough effect; inconclusive = small, poorly fitted or top-dose-only effect; inactive = flat fitted curve, though single readings scatter.

Regarding `[N-]=[N+]=NCC(N)=O`, the activation under setting [1] was inactive: 1.34% [at 9.22 µM].

For the molecule `O=[As]c1ccc(S(=O)(=O)NCCO)cc1` (stereo unspecified), the activation under setting [1] is inactive: 2.76% [at 9.22 µM].

Take `NC(=O)Nc1cc([As](=O)(O)O)cc(I)c1O`: the activation under setting [1] was inactive: 2.78% [at 9.22 µM].

Turning to `O=C(OC1CN2CCC1CC2)C12CC3CC(CC(C3)C1)C2` (stereo unspecified), the activation under setting [1] is inactive: 0.773% [at 0.369 µM].

With `O=C(O)[C@@H](O)c1ccc([As](=O)(O)O)cc1`, under setting [1], the activation is inactive: 3.57% [at 9.22 µM].

For `O=C(COc1ccccc1)OC1CN2CCC1CC2` (stereo unspecified), the activation under setting [1] is inactive: 0.358%.

Regarding `COP1(=S)c2c(C)nn(CCC#N)c2N=C(c2ccc(F)cc2)N1C` (stereo unspecified), the activation under setting [1] is inactive: -2.31%.

In the case of `CN(N=O)C(=N)N[N+](=O)[O-]`, the activation under setting [1] is inactive: 0.212%.

For the molecule `O=P1(Nc2ccc(Br)cn2)COc2ccccc2OC1`, the activation under setting [1] was inactive: 4.94% [at 0.369 µM].

Take `O=P1(Nc2ncccn2)COc2ccccc2OC1`: the activation under setting [1] is inactive: 3.47% [at 57.5 µM].

Regarding `Cc1nn(-c2ccccc2)c2c1P(=O)(N1CCOCC1)N(C)C(c1ccccc1)=N2` (stereo unspecified), the activation under setting [1] was inactive: -0.39%.

With `CN(C(=O)Cc1ccc(Cl)c(Cl)c1)[C@@H]1CCCC[C@H]1N1CCCC1`, the activation under setting [1] is inactive: 0.561% [middle of 4 runs].

Turning to `Clc1n[nH]nc1-c1nn[nH][15n]1`, the activation under setting [1] is inactive: 0.964%.

As to `CN(CCCl)Cc1cc(Cl)c(NC2=NCCN2)c(Cl)c1`, the activation under setting [1] is inactive: -3.23%.

As to `O=P1(Nc2ccccn2)COc2ccccc2OC1`, the activation under setting [1] was inactive: 1.75% [at 0.369 µM].

Turning to `CN(C(=O)Cc1ccc(Cl)c(Cl)c1)[C@@H]1CC[C@@]2(CCCO2)C[C@H]1N1CCCC1`, under setting [1], the activation was inactive: -0.174%.

Take `O=C(CC(=O)c1ccccc1)O[C@H]1CN2CCC1CC2`: the activation under setting [1] was inactive: 3.21% [at 9.22 µM].

For the molecule `NS(=O)(=O)Cc1ccc([As](=O)(O)O)cc1`, the activation under setting [1] was inactive: 3.25% [at 9.22 µM].

With `CCOP1(=S)c2c(C)nn(CCC#N)c2N=C(c2ccc(F)cc2)N1C` (stereo unspecified), under setting [1], the activation is inactive: -4.69%.

For the molecule `NC(=O)Nc1ccc([As](=O)(O)O)cc1`, the activation (at 20.6 µM (top of the series)) was inactive: -1.95% and the activation (at 46.1 µM (top of the series)) was inactive: 0.6%.

As for `O=[As](O)(O)c1ccc([As](=O)(O)O)cc1`, the activation under setting [1] was inactive: 0.989% [at 9.22 µM].

For `CCOP1(=S)c2c(C)nn(CCC#N)c2N=C(c2ccccc2F)N1C` (stereo unspecified), the activation under setting [1] is inactive: -0.187% [at 57.5 µM].

Regarding `O=P(Nc1nccs1)(c1ccccc1)c1nc2ccccc2s1` (stereo unspecified), the activation under setting [1] was inactive: 6.07%.

Turning to `COC(=O)c1cc2c(s1)N=C(c1ccccc1)N(C)P2(=O)N1CCOCC1` (stereo unspecified), the activation under setting [1] is inactive: -0.181% [at 57.5 µM].

Consider `O=P1(Nc2nc3ccc(Cl)cc3s2)COc2ccccc2O1` (stereo unspecified), for which the activation under setting [1] was inactive: 9.81% [at 0.369 µM].

On to `C[C@@H](O)COc1ccc([As](=O)(O)O)cc1N`, for which, under setting [1], the activation is inactive: 2.09% [at 9.22 µM].

Regarding `CN1CCC[C@H](OC(=O)C(c2ccccc2)c2ccccc2)C1`, the activation under setting [1] is inactive: -0.366% [at 9.22 µM].

For `c1nnnn1CCn1cnnn1`, under setting [1], the activation is inactive: 1.71% [at 1.84 µM].

Consider `O=P(Nc1nccs1)(c1ccccc1)c1ccccc1`, for which, under setting [1], the activation is inactive: 3.16% [at 57.5 µM].

For `O=C(OC1CN2CCC1CC2)c1cccc(Cl)c1` (stereo unspecified), the activation under setting [1] was inactive: -1.94% [at 0.369 µM].

As for `[N-]=[N+]=Nc1ccc([As](=O)(O)O)cc1`, under setting [1], the activation is inactive: 4.44% [at 9.22 µM].

`Cc1cc([N+](=O)[O-])cc([N+](=O)[O-])c1O`: the activation under setting [1] is inactive: -0.503%.

Consider `CN(C(=O)Cc1ccccc1)[C@@H]1CC[C@@]2(CCCO2)C[C@H]1N1CCCC1`, for which, under setting [1], the activation was inactive: 0.423%.

Turning to `O=C(CO)Nc1ccc([As](=O)(O)O)cc1`, the activation under setting [1] was inactive: -2.1% [at 9.22 µM].

For the molecule `CCc1nc2c(n1)c1c(non1O)c1c2no[n+]1[O-]`, under setting [1], the activation was inactive: 0.0382%.

Regarding `NCC[C@@H](N)CSP(=O)(O)O`, the activation under setting [1] was inactive: 1.14% [at 9.22 µM].

Regarding `Cc1c2non([O-])c-2c(C)[n+](=O)[n+]1[O-]`, the activation under setting [1] was inactive: -4.69%.

Turning to `O=[N+]([O-])c1ccc(C[As](=O)(O)O)cc1`, the activation under setting [1] was inactive: 0.967% [at 9.22 µM].

On to `C(Cc1nn[nH]n1)c1nn[nH]n1`, for which the activation under setting [1] is inactive: 3.78% [at 9.22 µM].

In the case of `[N-]=[N+]=NCC(O)CN=[N+]=[N-]` (stereo unspecified), the activation under setting [1] was inactive: -1.81% [at 9.22 µM].

The record behind these values is PubChem BioAssay AID925 (National Center for Advancing Translational Sciences (NCATS), 2007).
